pEC50: −log10 of the molar value.
Target: Glucagon receptor GCGR (Homo sapiens) (UniProt P47871)
Assay: Activation of human GCGR expressed in human HEK293 cells assessed as luminescence signal incubated for 16 hrs at 37C measured by CRE-driven luciferase reporter assay

pEC50: 9.34
Structure (SMILES): CC[C@H](C)[C@@H]1NC(=O)[C@H](Cc2ccccc2)NC(=O)[C@H](CCC(=O)O)NC(=O)[C@H](CCCCN)NC(=O)[C@H](C)NC(=O)[C@H](C)NC(=O)[C@@H](NC(=O)[C@H](CCC(=O)O)NC(=O)[C@H](CC(=O)O)NC(=O)[C@H](CC(C)C)NC(=O)[C@H](Cc2ccc(O)cc2)NC(=O)[C@H](CCCCN)NC(=O)[C@H](CO)NC(=O)[C@H](Cc2ccc(O)cc2)NC(=O)[C@H](CC(=O)O)NC(=O)[C@H](CO)NC(=O)[C@@H](NC(=O)[C@H](Cc2ccccc2)NC(=O)[C@@H](NC(=O)CNC(=O)[C@H](CCC(N)=O)NC(=O)[C@H](CO)NC(=O)[C@@H](N)Cc2cnc[nH]2)[C@@H](C)O)[C@@H](C)O)CSCC(=O)NCCCC(C(=O)NCCOCCOCCOCCNC(=O)CCCCCCC(=O)O)NC(=O)CSC[C@@H](C(=O)N[C@@H](Cc2c[nH]c3ccccc23)C(=O)N[C@@H](CC(C)C)C(=O)N[C@@H](CC(C)C)C(=O)N[C@@H](CCCNC(=N)N)C(=O)N[C@@H](C)C(N)=O)NC1=O (stereo partly specified)

— BindingDB's records for doi:10.1021/acs.jmedchem.1c01289 (University of South Florida, 2021)
